ChEMBL document CHEMBL4043276, “Design, synthesis and biological evaluation of 2-acetyl-5-O-(amino-alkyl)phenol derivatives as multifunctional agents for the treatment of Alzheimer's disease” (Bioorg Med Chem Lett, 2017)

Chains of the proteins cited; added tags and fusions are not shown.
UniProt P27338, whole entry: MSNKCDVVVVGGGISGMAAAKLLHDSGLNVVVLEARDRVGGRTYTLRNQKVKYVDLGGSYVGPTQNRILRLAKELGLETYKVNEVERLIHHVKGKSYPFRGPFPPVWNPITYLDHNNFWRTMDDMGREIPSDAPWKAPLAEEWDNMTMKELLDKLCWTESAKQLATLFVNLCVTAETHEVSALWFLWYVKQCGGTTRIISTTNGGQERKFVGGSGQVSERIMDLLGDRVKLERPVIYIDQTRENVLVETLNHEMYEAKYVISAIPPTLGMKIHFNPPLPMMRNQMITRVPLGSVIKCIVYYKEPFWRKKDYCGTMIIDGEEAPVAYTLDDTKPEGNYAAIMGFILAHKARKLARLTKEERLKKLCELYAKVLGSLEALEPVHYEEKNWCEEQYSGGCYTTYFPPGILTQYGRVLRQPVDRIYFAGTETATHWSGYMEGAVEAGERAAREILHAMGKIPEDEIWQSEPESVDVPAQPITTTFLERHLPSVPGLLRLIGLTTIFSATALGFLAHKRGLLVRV

How the values were obtained:
[1] = species on record: Homo sapiens; experiment: Selectivity index, ratio of IC50 for recombinant human MAO-A to IC50 for recombinant human MAO-B
[2] = target: Amine oxidase [flavin-containing] B (Homo sapiens, UniProt P27338); experiment: Inhibition of recombinant human MAO-B expressed in insect cell microsomes using kynuramine as substrate by fluorescence spectrophotometric method

SMILES: CC(=O)c1ccc(OCc2cccc(F)c2)cc1O
- Ratio IC50 [1]: 17500
- IC50 [2]: 2.9 nM
